# Yeast mating assay B: variants of the scFv Ab-14

The target is the same throughout: PDVDLGDISGINAS, from the HR2 region of SARS-CoV-2 spike.

Each scFv is VH, three GGGGS repeats, VL, as in the parent Ab-14, and differs from it in the CDRs of the heavy chain only.
VH: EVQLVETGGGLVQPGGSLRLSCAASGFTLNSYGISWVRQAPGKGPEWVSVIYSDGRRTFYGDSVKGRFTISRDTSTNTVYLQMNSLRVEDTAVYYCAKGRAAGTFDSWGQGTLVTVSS
VL: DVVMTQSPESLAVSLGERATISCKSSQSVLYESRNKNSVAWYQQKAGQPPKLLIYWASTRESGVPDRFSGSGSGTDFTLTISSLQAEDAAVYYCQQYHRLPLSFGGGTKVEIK

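The parent was found by panning a naive human phage display library on the peptide. These sequences belong to a second round, designed from the earlier measurements on random variants of the parent. Their group label is 14H_En_Gen (En: ensemble of fine-tuned language models; Gen: genetic algorithm). Affinity was read by AlphaSeq, a pooled yeast mating assay with surface-displayed partners. The frequency of each diploid, read from paired DNA barcodes, reflects how well the two displayed proteins bind. A regression on co-assayed BCL2-family reference pairs converts the normalised counts of each replicate to an apparent Kd. There are six technical replicates.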

Each variant is given by its three heavy chain CDRs, as the data file delimits them; those of the parent are GFTLNSYGIS, VIYSDGRRTFYGDSVK, GRAAGTFDS.
Numbers give log10(Kd / nM), so 0 is 1 nM and 3 is 1 µM. Smaller is tighter.
Averages over replicates are reported, and they cover detected replicates only.
A pair that was not seen in that replicate is written "ND"; this usually means weak binding, but a binder can also be missed.
Of ten entries with the parent sequence, four were seen in most replicates (averages 0.34 to 2.37), three in one and three in none, so single entries are noisy.
The range of this assay differs from that of the first round, and the authors advise against merging the two.
Nonspecific signal, from three strains lacking the peptide, appeared in 1% of pairings of all heavy chain designs, centred on 2.08 (5% of these signals below 0.84); values are not corrected for it. The control count says in how many pairings with the empty strains this scFv gave a signal, with their mean in brackets.
The authors averaged sequences with at least three values out of six and counted those with two or fewer as poor binders.

CDR-H1,CDR-H2,CDR-H3,"log10 Kd, replicates",mean log10 Kd (nM),signal with controls
GFDLDEYGIS,VIYADGRRTAYSDSVK,GENAGTFDV,-0.29 / -0.32 / -0.40 / -0.44 / -0.15 / -0.26,-0.31,1/18 (2.04)
GFDLNEYGIS,VIYADGMRKAYADNVK,GNNAGTFDV,-0.39 / -0.58 / -0.47 / -0.53 / -0.49 / -0.38,-0.47,0/18
GFDLNEYGIS,VIYADGRRTAYADDVK,GNNAGTFDV,-0.28 / -0.48 / -0.63 / -0.81 / -0.35 / -0.40,-0.49,0/18
GFDLNEYGIS,VIYADGMRTVYADSVK,GETAGTFDV,-0.51 / -0.49 / -0.78 / -0.98 / -0.77 / -0.63,-0.69,0/18
GFDLDEYGIS,VIYADGMRTAYADDVK,GNNAGTFDM,-0.49 / -0.74 / -0.77 / -0.81 / -0.81 / -0.65,-0.71,0/18
GFDLNEYGIS,VIYADGKRTAYADNVK,GQVAGTFDI,-0.06 / -0.47 / -0.11 / -0.29 / -0.26 / -0.25,-0.24,0/18
GFDLNEYGIS,VIYADGKRTAYIDSVK,GEVAGTFDV,-0.24 / -0.34 / -0.75 / -0.66 / -0.61 / -0.53,-0.52,0/18
GFDLSEYGIS,VIYADGMRTAYADSVK,GENAGTFDV,-0.05 / -0.42 / -0.67 / -0.53 / -0.47 / -0.36,-0.42,0/18
GFDLDEYGIS,VIYADGMRTAYADSVK,GENAGTFDQ,-0.22 / -0.64 / 0.01 / -0.56 / -0.54 / -0.47,-0.40,0/18
GFDLDEYGIS,VIYADGVRKAYADSVK,GQNAGTFDV,-0.58 / -0.78 / -0.62 / -0.90 / -0.84 / -0.60,-0.72,0/18
GFDLNEYGIS,VIYADGRRTAYADSVK,GENAGTFDL,0.88 / 0.40 / 0.47 / ND / -0.80 / -0.46,0.10,0/18
GFDLNEYGIS,VIYADGMRTAYSDSVK,GNHAGTFDL,-0.09 / -0.97 / -0.78 / -1.04 / -0.94 / -1.12,-0.82,0/18
GFDLEDYGIS,VIYADGMRTAYSDSVK,GETAGTFDL,-0.04 / -0.46 / -0.09 / -0.49 / -0.26 / 0.15,-0.20,0/18
GFDLNEYGIS,VIYADGMRTAYADDVK,GNTAGTFDT,0.10 / 0.19 / -0.61 / -0.61 / 0.01 / -0.38,-0.22,0/18
GFDLDEYGIS,VIYADGSRTAYADSVK,GENAGTFDL,0.07 / 0.26 / 0.19 / 0.02 / -0.22 / 0.10,0.07,0/18
GFDLNEYGIS,VIYADGMRTAYTDDVK,GEVAGTFDL,-0.58 / -0.23 / -0.35 / -0.70 / -0.01 / -0.27,-0.36,0/18
GFDLNEYGIS,VIYADGKRTAYADSVK,GEVAGTFDN,ND / -0.78 / -0.15 / 0.04 / -0.67 / -0.85,-0.48,0/18
GFDLDEYGIS,VIYADGMRTAYTDSVK,GNQAGTFDV,-0.41 / -0.52 / -0.66 / -0.49 / -0.41 / -0.45,-0.49,2/18 (2.10)
GFDLNEYGIS,VIYADGMRTAYVDSVK,GNTAGTFDL,-0.83 / -1.18 / -0.71 / -1.12 / -1.20 / -1.06,-1.02,0/18
GFNLDEYGIS,VIYADGRRTAYADSVK,GEVAGTFDI,-0.24 / -0.57 / -0.38 / -0.73 / -0.05 / -0.43,-0.40,0/18
GFDLDEYGIS,VIYADGKRTAYSDDVK,GNVAGTFDV,-0.30 / -0.62 / -0.24 / -0.58 / -0.83 / -0.57,-0.52,0/18
GFDLNEYGIS,VIYADGKRTAYTDSVK,GENAGTFDI,-0.22 / -0.14 / -0.67 / -0.43 / -0.56 / -0.31,-0.39,0/18
GFDLDEYGIS,VIYADGVRTAYADSVK,GETAGTFDL,-0.20 / -0.05 / 0.44 / -0.30 / 0.13 / 0.21,0.04,0/18
GFDLNEYGIS,VIYADGVRTAYTDSVK,GNQAGTFDI,-0.06 / -0.11 / -0.23 / -0.38 / -0.28 / -0.07,-0.19,1/18 (3.49)
GFDLNEYGIS,VIYADGMRTAYVDSVK,GNVAGTFDV,-0.97 / 0.27 / -0.97 / -1.47 / -1.34 / -0.71,-0.87,0/18
GFDLDEYGIS,VIYADGMRTAYADSVK,GNIAGTFDV,-0.58 / -0.62 / -0.85 / -0.28 / -0.31 / -0.35,-0.50,0/18
GFDLNEYGIS,VIYADGRRTAYVDSVK,GENAGTFDL,-0.17 / -0.40 / -0.34 / -0.40 / -0.43 / -0.35,-0.35,0/18
GFNLDEYGIS,VIYADGMRTAYADSVK,GNTAGTFDV,-0.63 / 0.06 / ND / -0.04 / ND / -0.33,-0.23,0/18
GFDLNEYGIS,VIYADGVRTVYADSVK,GEVAGTFDV,-0.25 / -0.42 / -0.44 / -0.39 / -0.43 / -0.06,-0.33,3/18 (1.77)
GFDLNEYGIS,VIYADGVRTYYADDVK,GNVAGTFDL,-0.28 / -0.71 / -0.54 / -0.79 / -0.40 / -0.14,-0.48,0/18
GFDLNEYGIS,VIYADGMRTAYADSVK,GQTAGTFDQ,0.40 / ND / ND / 0.37 / ND / 0.33,0.37,0/18
GFDLNEYGIS,VIYADGMRTAYADKVK,GETAGTFDQ,-0.12 / -0.73 / -0.68 / -0.87 / -0.65 / -0.62,-0.61,0/18
GFDLNEYGIS,VIYADGKRTYYADSVK,GETAGTFDV,-0.26 / -0.58 / -0.59 / -0.75 / 0.13 / 0.10,-0.33,1/18 (1.58)
GFDLNEYGIS,VIYADGRRTAYADDVK,GSNAGTFDV,0.90 / 0.87 / 0.50 / 0.13 / 0.39 / 0.85,0.61,1/18 (2.96)
GFDLNEYGIS,VIYADGMRTYYADSVK,GNTAGTFDL,ND / 0.06 / -0.79 / -1.30 / -0.76 / -0.71,-0.70,0/18
GFDLNEYGIS,VIYADGMRTAYVDDVK,GNEAGTFDV,-0.18 / -0.61 / -0.02 / -0.47 / 0.45 / -0.60,-0.24,0/18
GFDLNEYGIS,VIYADGQRTAYADDVK,GGNAGTFDV,0.17 / 0.14 / -0.66 / -0.11 / -0.21 / -0.07,-0.12,0/18
GFDLNEYGIS,VIYADGRRTAYADSVK,GNTAGTFDM,-0.92 / -1.02 / -0.96 / -1.27 / -1.31 / -1.08,-1.09,0/18
GFDLNEYGIS,VIYADGSRTFYADSVK,GNQAGTFDV,0.06 / -0.15 / -0.65 / 0.04 / -0.15 / -0.46,-0.22,0/18
GFDLDEYGIS,VIYADGMRTFYADSVK,GEVAGTFDQ,-0.21 / -0.13 / -0.13 / -0.38 / -0.14 / -0.31,-0.22,0/18
GFDLNEYGIS,VIYADGMRTAYSDSVK,GETAGTFDI,-0.20 / -0.33 / -0.43 / -0.35 / -0.15 / -0.26,-0.29,0/18
GFDLDEYGIS,VIYADGMRTYYADSVK,GQNAGTFDV,1.06 / 1.76 / 1.71 / 1.36 / 1.36 / 1.62,1.48,0/18
GFDLDEYGIS,VIYADGVRTAYADSVK,GTNAGTFDI,-0.38 / -0.50 / -0.69 / -0.50 / -0.50 / -0.50,-0.51,0/18
GFDLNEYGIS,VIYADGMRTAYAESVK,GNNAGTFDV,-0.29 / -0.20 / -0.27 / -0.39 / -0.22 / -0.21,-0.26,0/18
GFDLNEYGIS,VIYADGKRTMYADSVK,GNVAGTFDV,-0.13 / 0.43 / 0.74 / 0.24 / -0.06 / ND,0.24,0/18

The opening 5 entries, copied out:

| CDR-H1 | CDR-H2 | CDR-H3 | log10 Kd, replicates | mean log10 Kd (nM) | signal with controls |
|---|---|---|---|---|---|
| GFDLDEYGIS | VIYADGRRTAYSDSVK | GENAGTFDV | -0.29 / -0.32 / -0.40 / -0.44 / -0.15 / -0.26 | -0.31 | 1/18 (2.04) |
| GFDLNEYGIS | VIYADGMRKAYADNVK | GNNAGTFDV | -0.39 / -0.58 / -0.47 / -0.53 / -0.49 / -0.38 | -0.47 | 0/18 |
| GFDLNEYGIS | VIYADGRRTAYADDVK | GNNAGTFDV | -0.28 / -0.48 / -0.63 / -0.81 / -0.35 / -0.40 | -0.49 | 0/18 |
| GFDLNEYGIS | VIYADGMRTVYADSVK | GETAGTFDV | -0.51 / -0.49 / -0.78 / -0.98 / -0.77 / -0.63 | -0.69 | 0/18 |
| GFDLDEYGIS | VIYADGMRTAYADDVK | GNNAGTFDM | -0.49 / -0.74 / -0.77 / -0.81 / -0.81 / -0.65 | -0.71 | 0/18 |

Source: Li et al. 2023 (doi:10.1038/s41467-023-39022-2), MIT Lincoln Laboratory and A-Alpha Bio; data file from the FLAb repository.